According to patent US20240115582A1, “USE OF SODIUM TRANS-[TETRACHLORIDOBIS(1H-INDAZOLE)RUTHENATE(III)] FOR TREATING CANCERS” (Bold Therapeutics Inc., priority 2020, published 2024):

Test system: multiple myeloma cell lines

## C[C@@H]1COCCN1c1cc(-c2ccnn2C)c2ccnc(-c3ccn[nH]3)c2n1 [BAY 1895344]
  interaction of the two drugs to reduce cell viability: Synergistic interactions
